The values below come from PubChem BioAssay AID434962 (The Scripps Research Institute Molecular Screening Center, 2010).

Protein sequences, listed by entry. Tags and fused reporters are not part of them.
UniProt P14735, whole entry: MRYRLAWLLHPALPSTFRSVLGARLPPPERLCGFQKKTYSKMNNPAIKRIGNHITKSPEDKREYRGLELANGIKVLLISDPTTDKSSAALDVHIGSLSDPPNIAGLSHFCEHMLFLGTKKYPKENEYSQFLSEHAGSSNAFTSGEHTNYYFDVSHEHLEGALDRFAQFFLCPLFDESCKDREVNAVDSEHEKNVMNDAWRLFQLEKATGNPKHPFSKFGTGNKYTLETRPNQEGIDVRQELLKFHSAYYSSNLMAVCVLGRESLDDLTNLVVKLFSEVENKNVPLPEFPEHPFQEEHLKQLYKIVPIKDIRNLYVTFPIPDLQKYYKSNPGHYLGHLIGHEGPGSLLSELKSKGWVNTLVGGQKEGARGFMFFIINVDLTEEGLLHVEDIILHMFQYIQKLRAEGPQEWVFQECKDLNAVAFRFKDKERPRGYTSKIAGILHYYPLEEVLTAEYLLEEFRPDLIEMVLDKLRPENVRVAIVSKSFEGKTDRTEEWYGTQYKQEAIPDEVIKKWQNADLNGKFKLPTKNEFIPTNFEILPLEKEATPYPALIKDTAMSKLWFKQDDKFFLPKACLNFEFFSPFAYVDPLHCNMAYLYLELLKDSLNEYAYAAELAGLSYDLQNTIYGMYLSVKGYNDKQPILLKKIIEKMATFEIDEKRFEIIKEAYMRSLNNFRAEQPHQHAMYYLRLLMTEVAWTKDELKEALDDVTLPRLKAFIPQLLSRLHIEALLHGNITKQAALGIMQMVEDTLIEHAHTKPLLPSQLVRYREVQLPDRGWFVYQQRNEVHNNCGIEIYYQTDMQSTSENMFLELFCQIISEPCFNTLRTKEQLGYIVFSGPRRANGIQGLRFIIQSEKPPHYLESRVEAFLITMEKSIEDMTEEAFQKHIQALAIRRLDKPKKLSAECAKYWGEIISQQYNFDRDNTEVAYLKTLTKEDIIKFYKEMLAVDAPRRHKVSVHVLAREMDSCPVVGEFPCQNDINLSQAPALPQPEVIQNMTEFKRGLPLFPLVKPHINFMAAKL

For orientation: inhibition means the drop in the measured response relative to a control, in per cent.

The list shows a part of the results, in another mix than the full data. Activity calls are given as the source filed them.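 Rule for the calls: active = percent inhibition above the average of all tested compounds plus 3 SD, set per screening campaign (cut at about 16% in these data); inactive = the rest.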

The target of the assay is Insulin-degrading enzyme (Homo sapiens) (UniProt P14735). As to the kind of experiment: cellular IDE Abeta-cleavage inhibition – fluorescence polarization, HEK cells, FAbetaB substrate, primary screen (AID 434962).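 Note: IDE supplied by intact live HEK cells; FP after avidin binding of uncleaved biotin substrate so inhibition keeps polarization high; 0% = DMSO wells and 100% = 60 µM reference IDE inhibitor Ii1.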 The following applies: at 5.59 µM, active compounds read high. Background: Fluorescence polarisation rises when a labelled molecule tumbles more slowly, as on binding a larger partner.
With `COc1ccc(C(=O)NCC2(N3CCOCC3)CCCCC2)cc1OC`, the inhibition is inactive: -8.58%.
With `O=C(NCC1(N2CCOCC2)CCCCC1)c1cc(Br)ccc1Cl`, the inhibition was inactive: 0.39%.
In the case of `COc1cc(C(=O)NCC2(N3CCOCC3)CCCCC2)cc(OC)c1C` it was inactive: -3.91%; in that of `CCc1cc(C(=O)NCC2(N3CCCCC3)CCCCC2)sc1C`, inactive: 0.84%; in that of `O=C(OC1CN2CCC1CC2)C1c2ccccc2C=Cc2ccccc21` (stereo not drawn), inactive: 5.17%.
As for `N/C(=N\O)c1c(N)no[n+]1[O-]`, the inhibition is inactive: -4.78%.
With `CCOC(=O)N1CCC(Nc2ccc(C)cc2)CC1`, the inhibition is inactive: 0.79%.
For the molecule `CC(C)(C)OC(=O)N1CCC(N(C(=O)c2ccccc2)c2ccc(Cl)cc2)CC1`, the inhibition was inactive: 5.64%.
In the case of `N#Cc1ccc(C(=O)NCC2(N3CCCCC3)CCCCC2)cc1` it was inactive: 0.09%; in that of `CCCN1CCC(Nc2cc(OC)cc(OC)c2)CC1`, inactive: -1.12%; in that of `c1ccc(CN2CCC(Nc3ccccc3)CC2)cc1`, inactive: -0.98%.
As for `CN(C)C1(CNC(=O)c2cccc(C#N)c2)CCCCC1`, the inhibition is inactive: -1.2%.
In the case of `Fc1ccccc1NC1CCN(Cc2ccccc2)CC1`, the inhibition is inactive: 1.9%.
In the case of `Cc1ccc(C(=O)NCC2(N3CCCCC3)CCCCC2)o1` it was inactive: -11.1%; in that of `COc1cc(OC)cc(C(=O)NCC2(N3CCCCC3)CCCCC2)c1`, inactive: -2.4%.
For `CN(C)c1ccc(C(=O)NCC2(N3CCCCC3)CCCCC2)cc1`, the inhibition is inactive: -6.16%.
For the molecule `O=C(NCC1(N2CCCCC2)CCCCC1)c1ccco1`, the inhibition was inactive: -6.84%.
Consider `CCN1CCC(Nc2cccc(F)c2)CC1`, for which the inhibition is inactive: 6.28%.
As for `CCCOc1ccc(C(=O)NCC2(N(C)C)CCCCC2)cc1`, the inhibition was inactive: -2.25%.
Regarding `O=C(O)C1(Nc2ccccc2)CCN(Cc2ccccc2)CC1`, the inhibition was inactive: -1.81%.
With `CC(C)(C)OC(=O)N1CCC(Nc2ccccc2)CC1`, the inhibition is inactive: -3.05%.
With `CN1CCC(Nc2ccc(F)c(Cl)c2)CC1`, the inhibition is inactive: 1.8%.
For the molecule `CCOc1ncccc1C(=O)NCC1(N2CCOCC2)CCCCC1`, the inhibition was inactive: -2.05%.
Turning to `CCCOc1ccc(C)cc1CN(CCCl)CCCl`, the inhibition is inactive: 1.55%.
Take `CN1CCC(Nc2ccc(Cl)cc2)CC1`: the inhibition is inactive: -2.02%.
Regarding `CCC(CO)(C(=O)OC1CN2CCC1CC2)c1ccccc1` (stereo not drawn), the inhibition was inactive: -0.38%.
In the case of `COc1cc(OC)cc(C(=O)NCC2(N3CCOCC3)CCCCC2)c1` it was inactive: -0.58%; in that of `COc1cccc(C(=O)N(c2cc(C)cc(C)c2)C2CCN(C(=O)OC(C)(C)C)CC2)c1`, inactive: 5.62%; in that of `CSc1ccccc1C(=O)NCC1(N2CCCCC2)CCCCC1`, inactive: 4.72%.
Take `O=C(NCC1(N2CCCCC2)CCCCC1)c1cccs1`: the inhibition is inactive: -2.07%.
For the molecule `O=C(NCC1(N2CCCCC2)CCCCC1)c1ccc(=O)[nH]c1`, the inhibition is inactive: 2.21%.
`CC(C)(C)OC(=O)N1CCC(N(C(=O)c2ccccc2)c2ccc(F)cc2)CC1`: the inhibition was inactive: 5.02%.
Turning to `COc1ccc(C(=O)NCC2(N3CCCCC3)CCCCC2)c(OC)c1OC`, the inhibition was inactive: -3.41%.
In the case of `COc1ccc(C(=O)NCC2(N3CCCCC3)CCCCC2)cc1` it was inactive: 5.31%; in that of `CCOC(=O)N1CCC(Nc2ccc(OC)cc2)CC1`, inactive: -2.02%.
The figure for `COc1ccc(Cl)cc1C(=O)NCC1(N2CCOCC2)CCCCC1` is inactive: 6.05%; for `O=C(NCC1(N2CCCCC2)CCCCC1)c1ccc(Cl)s1` it is inactive: 3.38%.
For the molecule `N#CC1(Nc2ccccc2)CCN(Cc2ccccc2)CC1`, the inhibition is inactive: -7.29%.
As to `O=C(OC1CN2CCC1CC2)C1c2ccccc2Oc2ccccc21` (stereo not drawn), the inhibition was inactive: 0.82%.
Consider `O=C(NCC1(N2CCOCC2)CCCCC1)c1cc2ccccc2o1`, for which the inhibition is inactive: 4.12%.
On to `Cc1cc(C)cc(N(C(=O)c2ccccc2)C2CCN(C(=O)OC(C)(C)C)CC2)c1`, for which the inhibition was inactive: 10.5%.
For `O=C(NCC1(N2CCCCC2)CCCCC1)c1ccc(Cl)nc1`, the inhibition was inactive: 3.68%.
Consider `COc1ccc(NC2CCN(CCc3ccccc3)CC2)c(OC)c1`, for which the inhibition is inactive: 3.25%.
As to `O=C(NCC1(N2CCCCC2)CCCCC1)c1ccc(F)cc1`, the inhibition is inactive: -8.66%.
The figure for `CCOc1ccc(C)cc1CN(CCCl)CCCl` is inactive: 2.44%; for `Cc1ccc(OCC(C)C)c(CN(CCCl)CCCl)c1` it is inactive: -0.68%.
In the case of `CCOC(=O)N1CCC(Nc2cccc(C)c2)CC1` it was inactive: 1.34%.
On to `O=C(NCC1(N2CCCCC2)CCCCC1)c1cccc([N+](=O)[O-])c1`, for which the inhibition was inactive: 4.03%.
`N#CC1(Nc2ccccc2)CCN(CCc2ccccc2)CC1`: the inhibition was inactive: 2.91%.
As for `CCN1CCC(Nc2ccc(Cl)cc2)CC1`, the inhibition is inactive: 0.98%.
The figure for `O=C(NCC1(N2CCCCC2)CCCCC1)c1ccc(OC(F)F)cc1` is inactive: -0.01%; for `CN1CCN(CCOC(=O)C(O)(c2ccccc2)c2ccccc2)CC1` it is inactive: 2.88%.
As for `COc1ccc(NC2CCN(C(=O)OC(C)(C)C)CC2)cc1`, the inhibition was inactive: 5.16%.
Regarding `COc1cc(C(=O)NCC2(N3CCCCC3)CCCCC2)ccc1OC(F)F`, the inhibition is inactive: 2.89%.
Consider `O=C(NCC1(N2CCOCC2)CCCCC1)c1cc(=O)[nH]c2ccccc12`, for which the inhibition is inactive: -3.87%.
In the case of `O=C(NCC1(N2CCCCC2)CCCCC1)c1cccc(C(F)(F)F)c1`, the inhibition was inactive: -0.06%.
As to `O=C(NCC1(N2CCOCC2)CCCCC1)c1cc(F)c(F)cc1Cl`, the inhibition is inactive: 3.35%.
Consider `COc1cc(OC)c(C(=O)NCC2(N(C)C)CCCCC2)cc1OC`, for which the inhibition was inactive: -7.38%.
In the case of `CN(C)c1cccc(C(=O)NCC2(N3CCCCC3)CCCCC2)c1`, the inhibition is inactive: 3.67%.
`COc1ccc(CN(CCCl)CCCl)cc1Cl`: the inhibition was inactive: 0.8%.
In the case of `CC(C)c1ccc(NC2CCN(C(=O)OC(C)(C)C)CC2)cc1`, the inhibition was inactive: 3.63%.
Turning to `CN1CCC(Nc2cccc(F)c2)CC1`, the inhibition was inactive: -3.65%.
The figure for `O=C(NCC1(N2CCCCC2)CCCCC1)c1cncc(Br)c1` is inactive: -1.93%.
